Laboratory results published in article PMC3039689, “Identification of Small Molecule Lead Compounds for Visceral Leishmaniasis Using a Novel Ex Vivo Splenic Explant Model System” (PLoS Neglected Tropical Diseases, 2011).

Test: Cell toxicity (CC50) in the HepG2 cell line, CellTiter-Glo
Assay type: cell-based
Settings: human, ATP luminescence, compound from screened library

Compound: Oc1c(Cl)cc(Cl)c(Cl)c1Cc1c(O)c(Cl)cc(Cl)c1Cl [Hexachlorophene]
- CC50 at 24 h: 71.4 µM
